Laboratory results reported in PubChem BioAssay AID651699 (Sanford-Burnham Center for Chemical Genomics, 2012).
This is a selection; strong and weak results do not stand in their true shares. Calls of active or inactive are those of the source. No stated cut-off is given here; in the data, active means inhibition above about 36%; inactive means the rest.

Amino acid sequences for entries named in this document (tags omitted). A change or cut given only in a name is not applied to a line headed by its entry.
UniProt P61081: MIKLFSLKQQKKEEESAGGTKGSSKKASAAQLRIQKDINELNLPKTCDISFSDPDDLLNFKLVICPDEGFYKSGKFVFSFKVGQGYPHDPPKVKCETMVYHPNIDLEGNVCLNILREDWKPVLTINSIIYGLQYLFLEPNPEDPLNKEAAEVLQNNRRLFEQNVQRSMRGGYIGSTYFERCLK
UniProt Q13564: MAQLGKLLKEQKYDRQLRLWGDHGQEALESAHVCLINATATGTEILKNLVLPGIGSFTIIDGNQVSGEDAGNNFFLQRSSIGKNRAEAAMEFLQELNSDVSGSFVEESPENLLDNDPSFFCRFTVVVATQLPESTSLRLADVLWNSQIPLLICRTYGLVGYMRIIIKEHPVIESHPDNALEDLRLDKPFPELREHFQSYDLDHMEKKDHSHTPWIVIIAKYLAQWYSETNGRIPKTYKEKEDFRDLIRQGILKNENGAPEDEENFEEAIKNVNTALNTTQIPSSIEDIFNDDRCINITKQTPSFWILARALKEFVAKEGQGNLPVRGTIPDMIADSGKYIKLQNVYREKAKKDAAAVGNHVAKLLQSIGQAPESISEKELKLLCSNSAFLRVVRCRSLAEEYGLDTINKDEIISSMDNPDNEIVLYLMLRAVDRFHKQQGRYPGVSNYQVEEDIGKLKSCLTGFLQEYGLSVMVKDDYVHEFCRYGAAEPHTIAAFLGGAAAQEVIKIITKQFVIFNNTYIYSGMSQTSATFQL

Target: NEDD8-conjugating enzyme Ubc12 (Homo sapiens) + NEDD8-activating enzyme E1 regulatory subunit (Homo sapiens) (UniProt P61081+Q13564)
Assay: inhibitors of cullin neddylation, primary screen, biochemical, TR-FRET, uHTS, NAE and Ubc12 (AID 651699)
Settings: at 25 µM, hits give high values

Row | SMILES | inhibition
1 | CS(=O)(=O)c1ccc(Cl)c(NC(=O)COC(=O)C(O)(c2ccccc2)c2ccccc2)c1 | inactive: -1.76%
2 | O=[As](O)(O)c1cccnc1 | inactive: 0.6%
3 | COc1cc(C(=O)NCC2(N3CCOCC3)CCCCC2)cc(Cl)c1OC(C)C | inactive: 6.37%
4 | O=C(OC1CN2CCC1CC2)c1ccc(Cl)cc1 (stereo not given) | inactive: -9.66%
5 | Cc1cccc(OCC(=O)OC2CN3CCC2CC3)c1 (stereo not given) | inactive: -1.33%
6 | O=[As](O)(c1cccc(O)c1)c1cccc(O)c1 | inactive: 0.07%
7 | CCCOP(=S)(Nc1nc(N)cc(=O)[nH]1)OCCC | inactive: 6.22%
8 | Nc1cccc2c([As](=O)(O)O)cccc12 | inactive: -1.08%
9 | Cc1ccc(NCCc2c([N+](=O)[O-])cc([N+](=O)[O-])cc2[N+](=O)[O-])cc1 | inactive: -49.7%
10 | CCOP(=O)(Nc1cccc2ccccc12)OCC | inactive: 23.4%
11 | COc1cc(C2NCCC3(OCCO3)C2(C)C)cc(OC)c1OC (stereo not given) | inactive: 2.8%
12 | CS(=O)(=O)c1cc([N+](=O)[O-])c2no[n+]([O-])c2c1 | inactive: 0.07%
13 | O=P(Nc1nccs1)(Oc1ccccc1)Oc1ccccc1 | inactive: 6.54%
14 | O=P(Nc1nccs1)(c1ccccc1)c1nc2ccccc2s1 (stereo not given) | inactive: -7.32%
15 | CCOP1(=S)c2c(C)nn(CCC#N)c2N=C(c2ccccc2F)N1C (stereo not given) | inactive: 6.75%
16 | O=C(O)COc1ccc([As](=O)(O)O)cc1[N+](=O)[O-] | inactive: 6.3%
17 | Nc1ccccc1[As](=O)(O)c1ccccc1 | inactive: 7.39%
18 | NC(=O)Nc1ccc([As](=O)(O)O)cc1 | inactive: 6.03%
19 | CN(C(=O)Cc1ccc(Cl)c(Cl)c1)[C@H]1CC[C@@]2(CCCO2)C[C@@H]1N1CCCC1 | inactive: -11.4%
20 | O=[N+]([O-])c1ccc2c(c1)nnn2O | inactive: -21.5%
21 | CN(C)C(=O)c1cc([N+](=O)[O-])cc2c1-c1c(cc([N+](=O)[O-])cc1[N+](=O)[O-])C2=O | inactive: -59%
22 | CCOP1(=S)c2c(C)nn(CCC#N)c2N=C(c2ccc(F)cc2)N1C (stereo not given) | inactive: -4.61%
23 | CN(C(=O)Cc1ccccc1)[C@@H]1CC[C@]2(CCCO2)C[C@H]1N1CCCC1 | inactive: 1.75%
24 | N#CCCN(C(=O)COC(=O)C(O)(c1ccccc1)c1ccccc1)c1ccc(F)cc1 | inactive: 0.02%
25 | Cc1ccc(C(=O)OC2CN3CCC2CC3)cc1 (stereo not given) | inactive: -11.5%

Row | SMILES | inhibition
26 | CC1CCC(C(C)C)C(OP(=O)(Nc2ccccn2)c2ccccc2)C1 (stereo not given) | inactive: 1.46%
27 | Cc1nn(-c2ccccc2)c2c1P(=O)(N1CCOCC1)N(C)C(c1ccccc1)=N2 (stereo not given) | inactive: 2.68%
28 | CCCC1OP(=O)(Nc2ccccc2)OCC1CC (stereo not given) | inactive: 1.08%
29 | O=C(/C=C/c1ccccc1)OC1CN2CCC1CC2 (stereo not given) | inactive: 6.58%
30 | CN(C)C1(CNC(=O)c2ccc(S(C)(=O)=O)cc2)CCCCC1 | inactive: 10.3%
31 | O=P1(Nc2ncccn2)COc2ccccc2OC1 | inactive: 5.99%
32 | Cc1ccc(S(=O)(=O)N(CCCN)CCCc2c(C)nc(N)[nH]c2=O)cc1 | inactive: -62%
33 | O=[As](O)(c1cccs1)c1cccs1 | inactive: 1.36%
34 | Cc1ccc(OCC(=O)OC2CN3CCC2CC3)cc1 (stereo not given) | inactive: -1.34%
35 | NS(=O)(=O)c1cccc(NC(=O)COC(=O)C(O)(c2ccccc2)c2ccccc2)c1 | inactive: -26.3%
36 | O=P1(Nc2ccc(Br)cn2)COc2ccccc2OC1 | inactive: -2.65%
37 | Nc1cccc([As](=O)(O)c2ccccc2)c1 | inactive: 7.47%
38 | CCOP(=O)(Nc1ccc(C)cn1)OCC | inactive: 20.2%
39 | CN(CCCl)Cc1cc(Cl)c(NC2=NCCN2)c(Cl)c1 | inactive: -16.2%
40 | CCOP(=O)(NC(=NC(C)c1ccccc1)NC(C)c1ccccc1)OCC (stereo not given) | inactive: -0.06%
41 | CCC1=CC2Cc3nc4ccc(Cl)cc4c(N)c3C(C1)C2 (stereo not given) | inactive: 1.2%
42 | O=P1(Nc2ccccn2)COc2ccccc2OC1 | inactive: 6.86%
43 | CC(C)(C)C(=O)NC(Sc1ncccn1)C(Cl)(Cl)Cl (stereo not given) | inactive: 11%
44 | Clc1n[nH]nc1-c1nn[nH][15n]1 | inactive: -2.91%
45 | O=P1(N(CCCl)CCCl)NCCC(C(F)(F)F)O1 (stereo not given) | inactive: -4.83%
46 | COc1ccccc1CNC(=O)COC(=O)C(O)(c1ccccc1)c1ccccc1 | inactive: 16.1%
47 | CC1(CBr)Cn2c(nc3ccccc3c2=O)S1 (stereo not given) | inactive: -5.39%
48 | CN(C(=O)Cc1ccc(Cl)c(Cl)c1)[C@@H]1CCCC[C@H]1N1CCCC1 | inactive: -4.36%
49 | CC(C)/C=N\N=C(\N)N[N+](=O)[O-] | inactive: -3.4%
50 | COC(=O)C1(C)COP(=O)(N2CCCC2)OC1 (stereo not given) | inactive: -0.09%

Row | SMILES | inhibition
51 | COP1(=S)c2c(C)nn(CCC#N)c2N=C(c2ccc(F)cc2)N1C (stereo not given) | inactive: 1.53%
52 | O=C(Nc1ccncc1[N+](=O)[O-])c1ccc([N+](=O)[O-])cc1[N+](=O)[O-] | inactive: -42.2%
53 | O=C(COc1ccccc1)OC1CN2CCC1CC2 (stereo not given) | inactive: -4.28%
54 | O=C(O)C(=O)c1ccc(N(CCCl)CCCl)cc1 | inactive: -4.07%
55 | CCOC(=O)c1ccc(NC(=O)C(C)(CCl)SC)cc1 (stereo not given) | inactive: -2.23%
56 | CSc1ccc(Nc2c([N+](=O)[O-])cc([N+](=O)[O-])cc2[N+](=O)[O-])cc1 | inactive: -40.7%
57 | O=C(OC1CN2CCC1CC2)c1cccc([N+](=O)[O-])c1 (stereo not given) | inactive: -20.9%
58 | CCC(C)N(CC(C)C)C(=S)SC(NC(C)=O)C(Cl)(Cl)Cl (stereo not given) | inactive: -0.42%
59 | CC1CCNP(=O)(N(CCCl)CCCl)O1 (stereo not given) | inactive: -4.53%
60 | O=C(O)C(O)c1ccc(N(CCCl)CCCl)cc1 (stereo not given) | inactive: -7.53%
61 | CCOC(=O)Nc1ccc([As](=O)(O)O)c(O)c1 | inactive: -3.26%
62 | Cc1cc(SC(NC(=O)c2ccccc2)C(Cl)(Cl)Cl)nc(C(C)C)n1 (stereo not given) | inactive: 18.8%
63 | CCCCOc1ccc(C(=O)NCC2(N3CCCCC3)CCCCC2)cc1OC | inactive: -1.46%
64 | COP(=O)(OC)N1CC1c1ccccc1 (stereo not given) | inactive: -4.54%
65 | CCOC(=O)Nc1cccc([As](=O)(O)O)c1 | inactive: -1.08%
66 | O=[N+]([O-])c1ccc(Nc2ccc(Oc3ccc([N+](=O)[O-])cc3[N+](=O)[O-])cc2)c([N+](=O)[O-])c1 | inactive: -20.3%
67 | Cc1cc(SC(NC=O)C(Cl)(Cl)Cl)ncn1 (stereo not given) | inactive: -3.36%
68 | O=P(Nc1ccccn1)(c1cccc2ccccc12)c1cccc2ccccc12 | inactive: -35%
69 | O=[N+]([O-])c1ccc(-c2cc([N+](=O)[O-])c(O)c([N+](=O)[O-])c2)cc1 | inactive: -38.7%
70 | COc1cc(C(=O)NCC2(N3CCOCC3)CCCCC2)ccc1OCC(C)C | inactive: -1.58%
71 | O=[As](O)(c1ccc(O)cc1)c1ccccc1O | inactive: -3.69%
72 | C[As](=O)(O)c1cccc(C(=O)O)c1 | inactive: 1.54%
73 | Cc1ccc2nc3c(c(C)c2c1)CC(C(Cl)Cl)S3 (stereo not given) | inactive: -89.5%
74 | Cc1ccc(OP(=O)(Nc2ccc([N+](=O)[O-])cn2)Oc2ccc(C)cc2)cc1 | inactive: 0.63%
75 | [N-]=[N+]=NC1CCCCC1NC(=O)c1cc([N+](=O)[O-])cc([N+](=O)[O-])c1 (stereo not given) | inactive: -30.7%

Row | SMILES | inhibition
76 | COC(=O)C1(C)COP(=O)(N2CCCCCC2)OC1 (stereo not given) | inactive: -2.54%
77 | CC(C)c1ccc(OP(=O)(Nc2ccccn2)Oc2ccccc2F)cc1 (stereo not given) | inactive: 13.8%
78 | ClCCSc1nnc(-c2cccnc2)o1 | inactive: -6.92%
79 | O=[N+]([O-])c1cc([N+](=O)[O-])c(-c2ccn[nH]2)s1 | inactive: -22.1%
80 | CC(C)NC(=O)NP(=O)(Oc1ccccc1)Oc1ccccc1 | inactive: 2.03%
81 | O=C(OC1CN2CCC1CC2)c1cccc2[nH]cnc12 (stereo not given) | inactive: 9.46%
82 | CCN(CC)C(=S)SC(NC=O)C(Cl)(Cl)Cl (stereo not given) | inactive: 8.39%
83 | Cc1cc(=O)[nH]c(N[N+](=O)[O-])n1 | inactive: 8.29%
84 | O=C(OC1CN2CCC1CC2)C12CC3CC(CC(C3)C1)C2 (stereo not given) | inactive: 9.12%
85 | Cc1c2c(nc3ccccc13)SC(C(Cl)Cl)C2 (stereo not given) | inactive: -106%
86 | COc1cc(I)ccc1[As](=O)(O)O | inactive: 2.69%
87 | COc1ccc2nc(NP(=O)(c3ccccc3)c3ccccc3)sc2c1 | inactive: 3.2%
88 | O=P1(N(CCCl)CCCl)Nc2ccccc2N1 | inactive: -1.77%
89 | O=P1(N(CCCl)CCCl)OCCCN1CCCl (stereo not given) | inactive: -2.59%
90 | COc1ccc(N/C(=N/P(=O)(N2CCOCC2)N2CCOCC2)N2CCOCC2)cc1 | inactive: 4.88%
91 | O=[N+]([O-])c1cc(Oc2ccc([N+](=O)[O-])cc2C(F)(F)F)cc([N+](=O)[O-])c1 | inactive: -30.6%
92 | NC(=O)c1cc([N+](=O)[O-])cc([N+](=O)[O-])c1N | inactive: -38.5%
93 | Cc1ccc(N/C(=N/P(=O)(N2CCOCC2)N2CCOCC2)N2CCOCC2)cc1 | inactive: 7.32%
94 | CN(C(=O)Cc1ccc(Cl)c(Cl)c1)[C@H]1CCCC[C@H]1N1CCCC1 | inactive: 7.51%
95 | Cc1ccc(OP(=O)(Nc2nccs2)Oc2ccc(C)cc2)cc1 | inactive: -2.15%
96 | COc1ccccc1OP(=O)(Nc1ccc(C)cn1)Oc1ccccc1OC | inactive: 3.49%
97 | CN1CCCC(OC(=O)C(c2ccccc2)c2ccccc2)C1 (stereo not given) | inactive: -3.29%
98 | Clc1ccc(Cl)c(NC2=NCC(CBr)S2)c1 (stereo not given) | inactive: -0.63%
99 | Nc1cc(N)c2nonc2c1[N+](=O)[O-] | inactive: -38.6%
100 | CC(C)CC(=O)NC(Sc1ccc(Cl)cc1)C(Cl)(Cl)Cl (stereo not given) | inactive: -0.26%
